# AlphaSeq binding of Ab-14 heavy chain variants to a spike HR2 peptide

The target is the same throughout: PDVDLGDISGINAS, from the HR2 region of SARS-CoV-2 spike.

The variants keep the light chain, the linker and the frameworks of Ab-14 (scFv order VH, a 15-residue (Gly4Ser)3 linker, VL).
VH: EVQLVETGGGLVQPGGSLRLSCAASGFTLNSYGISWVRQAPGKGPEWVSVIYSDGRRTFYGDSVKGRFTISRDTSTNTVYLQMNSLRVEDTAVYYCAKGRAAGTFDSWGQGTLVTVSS
VL: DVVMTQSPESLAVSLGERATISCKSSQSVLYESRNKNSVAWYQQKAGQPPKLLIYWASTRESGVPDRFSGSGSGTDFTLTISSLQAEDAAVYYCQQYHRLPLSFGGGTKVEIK

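Library AAYL49 holds single substitutions and randomly drawn double and triple substitutions in the CDRs. The assay is AlphaSeq: two haploid yeast populations carry antibody and antigen on their surface. The frequency of each diploid, read from paired DNA barcodes, reflects how well the two displayed proteins bind. The ratio of observed to expected reads was calibrated, replicate by replicate, on BCL2-family standards whose Kd was known from biolayer interferometry. The assay was run in three technical replicates.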

Positions count from residue 1 of the parent VH; S35Q puts Q in place of S.
Values are log10 of the apparent Kd in nM; lower means stronger binding.
The mean shown is taken over the replicates in which the pair was detected.
Where no diploid with the target was found in that replicate, the entry reads "n.d.": below detection, most likely a poor binder, though not proof of it.
In this assay the parent's reference entry averaged 0.65; its copy inside this library read 4.11 (one replicate of three).
Nonspecific signal, from three strains lacking the peptide, appeared in 15% of pairings of library AAYL49, centred on 4.06 (5% of these signals below 2.83); values are not corrected for it. Also given: how often the same scFv was detected with the empty control strains, with their mean in brackets.

changes,log10 Kd (nM) by replicate,mean log10 Kd (nM),empty controls
S35Q+F59V+S63C,4.67 4.26 n.d.,4.47,1 of 9 (4.65)
T28I+R57N+Y60H,n.d. n.d. n.d.,n.d.,0 of 9
L29Y+I34L+D54K,2.75 n.d. n.d.,2.75,0 of 9
G26M+G33W+R57K,n.d. 3.97 n.d.,3.97,8 of 9 (4.82)
G33K+I51T+R56N,n.d. 4.12 5.36,4.74,5 of 9 (4.18)
Y52W+R56L,n.d. n.d. n.d.,n.d.,0 of 9
S53C+R100W+A101T,3.38 3.02 n.d.,3.20,0 of 9
F27M+R56P+F105M,n.d. 2.93 4.63,3.78,2 of 9 (3.61)
T28Y+D62F,n.d. n.d. n.d.,n.d.,0 of 9
R56I+F59K+A102I,n.d. n.d. n.d.,n.d.,2 of 9 (4.14)
R57L+Y60C+A102M,5.32 n.d. 3.56,4.44,1 of 9 (3.55)
R57T+T58E+D62H,n.d. 3.93 3.51,3.72,1 of 9 (3.52)
F27V+T28V+V64T,n.d. n.d. n.d.,n.d.,0 of 9
F59T+D62L+K65L,n.d. 4.76 n.d.,4.76,6 of 9 (4.17)
D54T+S63V+F105N,n.d. n.d. n.d.,n.d.,1 of 9 (3.14)
Y52F+R100S+A102Y,n.d. n.d. n.d.,n.d.,0 of 9
T28G+K65D+D106A,n.d. 2.41 n.d.,2.41,0 of 9
I34F+G99C+T104G,n.d. n.d. n.d.,n.d.,0 of 9
K65Y+G99P+R100Y,3.47 n.d. n.d.,3.47,5 of 9 (4.06)
F27M+K65G+A102G,n.d. n.d. 4.85,4.85,0 of 9
G33L+Y60A+S63L,5.42 n.d. n.d.,5.42,2 of 9 (4.03)
G33S+G61S+S63F,5.59 n.d. n.d.,5.59,3 of 9 (2.87)
L29P+D62I,3.41 3.44 n.d.,3.43,0 of 9
Y32L+G33E+G103K,n.d. 3.81 n.d.,3.81,0 of 9
I34A+D62V+D106P,n.d. n.d. n.d.,n.d.,0 of 9
D54H+V64A+F105P,3.83 n.d. n.d.,3.83,4 of 9 (4.24)
F27T+Y60Q+R100L,n.d. n.d. n.d.,n.d.,0 of 9
L29D+T58N+S63V,n.d. n.d. n.d.,n.d.,2 of 9 (3.66)
D54F+F59C+D62K,n.d. n.d. n.d.,n.d.,1 of 9 (3.08)
G26Y+T28P+G103N,n.d. n.d. n.d.,n.d.,0 of 9
I51R+Y60I+G61H,n.d. n.d. n.d.,n.d.,0 of 9
N30P+S31C+G55S,3.78 n.d. n.d.,3.78,2 of 9 (4.44)
I34A+G99N+G103K,5.96 n.d. 4.71,5.33,3 of 9 (3.72)
S35T+D54C+F105D,n.d. n.d. n.d.,n.d.,0 of 9
G103T+S107K,1.40 1.86 1.23,1.50,0 of 9
I34H+R57F+V64P,n.d. n.d. n.d.,n.d.,0 of 9
T28V+R57K+R100L,2.63 2.69 n.d.,2.66,2 of 9 (4.93)
T58N+D106W+S107H,n.d. n.d. n.d.,n.d.,2 of 9 (4.22)
G55I+G61C+A102S,n.d. n.d. n.d.,n.d.,2 of 9 (4.99)
L29F+S31Q+D62P,1.66 1.80 2.89,2.11,1 of 9 (4.83)
G26M+G33T+R57D,n.d. n.d. n.d.,n.d.,2 of 9 (4.01)
R57H+D62R+A101W,n.d. n.d. n.d.,n.d.,2 of 9 (3.38)
F59I+G61A,0.95 1.12 1.18,1.08,2 of 9 (4.36)
V50L+D62Y+S107I,n.d. 5.22 n.d.,5.22,5 of 9 (3.95)
R57P+F59Q,n.d. n.d. n.d.,n.d.,1 of 9 (3.68)
G26M+Y52Q,2.71 n.d. n.d.,2.71,0 of 9
G33A+S35G+F59V,n.d. 2.53 3.11,2.82,2 of 9 (2.99)

For reference, 4 entries of the list once more:

changes,log10 Kd (nM) by replicate,mean log10 Kd (nM),empty controls
F59T+D62L+K65L,n.d. 4.76 n.d.,4.76,6 of 9 (4.17)
Y52F+R100S+A102Y,n.d. n.d. n.d.,n.d.,0 of 9
G103T+S107K,1.40 1.86 1.23,1.50,0 of 9
I34H+R57F+V64P,n.d. n.d. n.d.,n.d.,0 of 9

From the AlphaSeq antibody data of Engelhart et al. 2022 (doi:10.1038/s41597-022-01779-4), copy in the FLAb collection.